Target: CeTb, colchicine site (Gallus gallus, UniProt P09207)
Experiment: Single-point MDL competitive binding inhibition screen, erythrocyte tubulin
Design: species or system chicken (Gallus gallus)
Settings: 50 µM drug, 1 µM tubulin, 5 µM MDL

Chains of the proteins cited; added tags and fusions are not shown.
UniProt P09207, whole entry, looked up: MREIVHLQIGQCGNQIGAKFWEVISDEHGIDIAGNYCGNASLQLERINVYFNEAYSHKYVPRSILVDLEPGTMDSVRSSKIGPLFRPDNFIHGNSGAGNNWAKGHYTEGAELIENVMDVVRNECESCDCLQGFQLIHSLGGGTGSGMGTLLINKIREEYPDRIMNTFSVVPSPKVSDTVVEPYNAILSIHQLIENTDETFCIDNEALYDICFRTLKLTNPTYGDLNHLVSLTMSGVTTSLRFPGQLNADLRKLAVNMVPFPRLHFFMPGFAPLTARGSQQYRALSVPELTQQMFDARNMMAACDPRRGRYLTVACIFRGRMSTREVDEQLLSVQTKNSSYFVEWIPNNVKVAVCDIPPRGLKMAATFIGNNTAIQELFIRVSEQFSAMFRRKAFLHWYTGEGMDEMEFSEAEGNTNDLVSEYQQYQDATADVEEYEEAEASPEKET

COc1c2c(cc3c1-c1ccc(OC)c(=O)cc1C(NC(C)=O)CC3)OCO2 (stereo not shown) [Cornigerine]
CeTb % (inhibition of MDL binding): 36%

— article PMC9194530, “Interaction of Colchicine-Site Ligands With the Blood Cell-Specific Isotype of β-Tubulin—Notable Affinity for Benzimidazoles” (Frontiers in Cell and Developmental Biology, 2022)
